Experimental findings from PubChem BioAssay AID760 (NMMLSC, 2007) are described below.

Only a part is listed here, and it is no random draw. Calls of active or inactive are those of the source.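 Rule for the calls: active = GTP binding activity at least 20 points away from 100%, either lowered or raised; inconclusive = signal likely due to the compound's own green fluorescence; inactive = the rest.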

This test addresses Ras-related protein Rab-2A (Canis lupus familiaris) (UniProt P61105). Put plainly: modulators of GTP binding to Rab2A wildtype, primary screen, biochemical, dog, bead-based flow cytometry, multiplex (AID 760).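 Note: 0% = beads with excess unlabeled GTP and 100% = no-compound control corrected for plate trend.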 As to conditions: GST-Rab2 wt beads, Bodipy-GTP binding, at 10 µM.
For the compound `O=P(Nc1ccccn1)(c1cccc2ccccc12)c1cccc2ccccc12`, the GTP binding activity was inactive: 95%. On to `Cc1cc(SC(NC=O)C(Cl)(Cl)Cl)ncn1` (stereo not given), for which the GTP binding activity is inactive: 99%.

Consider `Cc1cc(SC(NC(=O)c2ccccc2)C(Cl)(Cl)Cl)nc(C(C)C)n1` (stereo not given), for which the GTP binding activity is inactive: 100%. As for `CCC(C)N(CC(C)C)C(=S)SC(NC(C)=O)C(Cl)(Cl)Cl` (stereo not given), the GTP binding activity was inactive: 98%. Under `COP1(=S)c2c(C)nn(CCC#N)c2N=C(c2ccc(F)cc2)N1C` (stereo not given) stands inactive: 98%; under `O=C(COc1ccccc1)OC1CN2CCC1CC2` (stereo not given), inactive: 103%. Turning to `COc1ccc(N/C(=N/P(=O)(N2CCOCC2)N2CCOCC2)N2CCOCC2)cc1`, the GTP binding activity was inactive: 98%. For the compound `Cc1cc(=O)[nH]c(N[N+](=O)[O-])n1`, the GTP binding activity was inactive: 100%. Turning to `Cc1c2c(nc3ccccc13)SC(C(Cl)Cl)C2` (stereo not given), the GTP binding activity was inactive: 100%. Turning to `COc1ccc2nc(NP(=O)(c3ccccc3)c3ccccc3)sc2c1`, the GTP binding activity is inactive: 97%. For `ClCCSc1nnc(-c2cccnc2)o1`, the GTP binding activity was inactive: 100%. With `CC(C)NC(=O)NP(=O)(Oc1ccccc1)Oc1ccccc1`, the GTP binding activity was inactive: 98%.

Regarding `CCN(CC)C(=S)SC(NC=O)C(Cl)(Cl)Cl` (stereo not given), the GTP binding activity is inactive: 95%. Consider `O=[N+]([O-])c1cc([N+](=O)[O-])c(-c2ccn[nH]2)s1`, for which the GTP binding activity is inactive: 97%. Under `Cc1ccc2nc3c(c(C)c2c1)CC(C(Cl)Cl)S3` (stereo not given) stands inactive: 98%. For the compound `O=[N+]([O-])c1ccc2c(c1)nnn2O`, the GTP binding activity was inactive: 101%. Under `CCOP1(=S)c2c(C)nn(CCC#N)c2N=C(c2ccc(F)cc2)N1C` (stereo not given) stands inactive: 96%; under `CCOP1(=S)c2c(C)nn(CCC#N)c2N=C(c2ccccc2F)N1C` (stereo not given), inactive: 98%. For `O=P(Nc1nccs1)(Oc1ccccc1)Oc1ccccc1`, the GTP binding activity is inactive: 99%. `O=P(Nc1nccs1)(c1ccccc1)c1nc2ccccc2s1` (stereo not given): the GTP binding activity was inactive: 100%. Consider `Cc1ccc(NCCc2c([N+](=O)[O-])cc([N+](=O)[O-])cc2[N+](=O)[O-])cc1`, for which the GTP binding activity was inactive: 97%. For `COc1cc(C2NCCC3(OCCO3)C2(C)C)cc(OC)c1OC` (stereo not given), the GTP binding activity is inactive: 93%. `CCOP(=O)(Nc1cccc2ccccc12)OCC`: the GTP binding activity is inactive: 101%. For the compound `COc1cc(C(=O)NCC2(N3CCOCC3)CCCCC2)cc(Cl)c1OC(C)C`, the GTP binding activity was inactive: 95%. As to `Cc1cccc(OCC(=O)OC2CN3CCC2CC3)c1` (stereo not given), the GTP binding activity is inactive: 103%. Take `CC(C)/C=N\N=C(\N)N[N+](=O)[O-]`: the GTP binding activity is inactive: 96%. With `O=P1(Nc2ccccn2)COc2ccccc2OC1`, the GTP binding activity is inactive: 101%. Regarding `Clc1n[nH]nc1-c1nn[nH][15n]1`, the GTP binding activity is inactive: 102%.

In the case of `O=P1(Nc2ncccn2)COc2ccccc2OC1`, the GTP binding activity was inactive: 101%. With `Cc1ccc(OCC(=O)OC2CN3CCC2CC3)cc1` (stereo not given), the GTP binding activity is inactive: 100%.

On to `O=P1(Nc2ccc(Br)cn2)COc2ccccc2OC1`, for which the GTP binding activity was inactive: 97%.

On to `Cc1nn(-c2ccccc2)c2c1P(=O)(N1CCOCC1)N(C)C(c1ccccc1)=N2` (stereo not given), for which the GTP binding activity is inactive: 101%. `CC1CCC(C(C)C)C(OP(=O)(Nc2ccccn2)c2ccccc2)C1` (stereo not given): the GTP binding activity is inactive: 94%.

In the case of `CN(C)C1(CNC(=O)c2ccc(S(C)(=O)=O)cc2)CCCCC1`, the GTP binding activity was inactive: 99%. With `CC(=O)NC(SC(=S)N(C)C)C(Cl)(Cl)Cl` (stereo not given), the GTP binding activity is inactive: 103%. For `C(Cc1nn[nH]n1)Cc1nn[nH]n1`, the GTP binding activity is inactive: 102%. `O=C(OC1CN2CCC1CC2)c1cccc(Cl)c1` (stereo not given): the GTP binding activity was inactive: 103%. With `O=P(Nc1ccccn1)(c1ccc(Br)cc1)c1ccc(Br)cc1`, the GTP binding activity is inactive: 91%. As for `CC(C)C(=O)NC(Sc1ccccc1)C(Cl)(Cl)Cl` (stereo not given), the figure is inactive: 101%.

With `O=P(Nc1nccs1)(c1ccccc1)c1ccccc1`, the GTP binding activity is inactive: 102%. As to `c1nnnn1CCn1cnnn1`, the GTP binding activity was inactive: 103%. `CC(=O)Nc1ccc(Oc2c([N+](=O)[O-])cc([N+](=O)[O-])cc2[N+](=O)[O-])cc1`: the GTP binding activity is inactive: 84%. With `O=P1(Nc2nc3ccc(Cl)cc3s2)COc2ccccc2O1` (stereo not given), the GTP binding activity was inactive: 93%. Turning to `CCOc1ccc(C2=NCC(CBr)S2)cc1` (stereo not given), the GTP binding activity was inactive: 96%. For the compound `CC(C)(C)C(=O)NC(Sc1ccccc1)C(Cl)(Cl)Cl` (stereo not given), the GTP binding activity was inactive: 97%.

With `COC(=O)c1cc2c(s1)N=C(c1ccccc1)N(C)P2(=O)N1CCOCC1` (stereo not given), the GTP binding activity is inactive: 94%. With `CC(=O)NC(SC(=S)N(CC(C)C)CC(C)C)C(Cl)(Cl)Cl` (stereo not given), the GTP binding activity is inactive: 94%. Take `Cc1ccc(OP(=O)(Nc2ccccn2)Oc2ccc(C)cc2)cc1`: the GTP binding activity is inactive: 94%. Regarding `CCC(=O)N1C2C3N(C(=O)CC)C1C1N(C(=O)CC)C(C(N1C(=O)CC)N3C(=O)CC)N2C(=O)CC`, the GTP binding activity was inactive: 100%.

Turning to `O=c1c2cc([N+](=O)[O-])ccc2[nH]c2c([N+](=O)[O-])cc([N+](=O)[O-])cc12`, the GTP binding activity was inactive: 94%. `CCNC(=S)/N=C(\N)N[N+](=O)[O-]`: the GTP binding activity is inactive: 94%. `O=C(NC1CCS(=O)(=O)C1)NP(=S)(Oc1ccccc1)Oc1ccccc1` (stereo not given): the GTP binding activity was inactive: 95%.

Consider `c1ccc(-c2nn[nH]n2)c(-c2nn[nH]n2)c1`, for which the GTP binding activity is inactive: 97%. As to `CCOC(=O)NC(Sc1ccccc1)C(Cl)(Cl)Cl` (stereo not given), the GTP binding activity was inactive: 98%. As to `CCN(N=Nc1nonc1N)c1nonc1N`, the GTP binding activity was inactive: 100%.

Consider `Cc1cc(SC(NC(=O)c2ccc(F)cc2)C(Cl)(Cl)Cl)ncn1` (stereo not given), for which the GTP binding activity is inactive: 97%.

Consider `CCOP(=O)(Nc1ccccc1)OCC`, for which the GTP binding activity is inactive: 105%. Under `CC(C)CC(=O)NC(Sc1ccc(Cl)cc1)C(Cl)(Cl)Cl` (stereo not given) stands inactive: 100%; under `Oc1ccccc1CNc1ccccn1`, inactive: 100%. Regarding `O=C(NC(Sc1ccncn1)C(Cl)(Cl)Cl)c1ccccc1` (stereo not given), the GTP binding activity is inactive: 97%. Turning to `Cc1c2non([O-])c-2c(C)[n+](=O)[n+]1[O-]`, the GTP binding activity was inactive: 97%.

On to `NC(=O)c1cc([N+](=O)[O-])cc([N+](=O)[O-])c1N`, for which the GTP binding activity is inactive: 98%. As for `Cc1ccc(N/C(=N/P(=O)(N2CCOCC2)N2CCOCC2)N2CCOCC2)cc1`, the GTP binding activity is inactive: 97%. Under `CN1CCCC(OC(=O)C(c2ccccc2)c2ccccc2)C1` (stereo not given) stands inactive: 100%; under `Clc1ccc(Cl)c(NC2=NCC(CBr)S2)c1` (stereo not given), inactive: 95%; under `CCN(/C(=N/P(=O)(N1CCOCC1)N1CCOCC1)N1CCOCC1)c1ccc(OC)cc1`, inactive: 101%. Turning to `CN(C)C(=O)OCCc1n(C)cc[n+]1C`, the GTP binding activity was inactive: 99%. For `CC1CCN(C(=O)Oc2c(Cl)cc(Cl)c3cccnc23)CC1`, the GTP binding activity is inactive: 99%. With `COc1ccc(C2=NCC(CBr)S2)cc1` (stereo not given), the GTP binding activity was inactive: 97%.

With `O=[N+]([O-])c1cccc2n[nH]nc12`, the GTP binding activity is inactive: 106%. On to `CC(=O)N1C2C3N(C(C)=O)C1C1N(C(C)=O)C(C(N1C(C)=O)N3C(C)=O)N2C(C)=O`, for which the GTP binding activity was inactive: 95%. Under `Cc1ccc(NP(=O)(Oc2ccccc2)Oc2ccccc2)nc1` stands inactive: 99%; under `CCc1nc2c(n1)c1c(non1O)c1c2no[n+]1[O-]`, inactive: 95%; under `O=[N+]([O-])c1cc([N+](=O)[O-])c(CCNc2ccccc2)c([N+](=O)[O-])c1`, inactive: 99%. As for `O=[N+]([O-])c1ncn(CCn2ncnc2[N+](=O)[O-])n1`, the figure is inactive: 96%.
